Earlier results as cited in paper PMC4297247 (Molecular cancer therapeutics, 2014).

Test system: TNBC
Settings: anti-EGFR antibody treatment in TNBC; cited from earlier work

## cetuximab
  patient response rate: low patient response rate
